By UniProt entry, the sequences of proteins in these tests, tags left out.
UniProt Q14694, whole entry: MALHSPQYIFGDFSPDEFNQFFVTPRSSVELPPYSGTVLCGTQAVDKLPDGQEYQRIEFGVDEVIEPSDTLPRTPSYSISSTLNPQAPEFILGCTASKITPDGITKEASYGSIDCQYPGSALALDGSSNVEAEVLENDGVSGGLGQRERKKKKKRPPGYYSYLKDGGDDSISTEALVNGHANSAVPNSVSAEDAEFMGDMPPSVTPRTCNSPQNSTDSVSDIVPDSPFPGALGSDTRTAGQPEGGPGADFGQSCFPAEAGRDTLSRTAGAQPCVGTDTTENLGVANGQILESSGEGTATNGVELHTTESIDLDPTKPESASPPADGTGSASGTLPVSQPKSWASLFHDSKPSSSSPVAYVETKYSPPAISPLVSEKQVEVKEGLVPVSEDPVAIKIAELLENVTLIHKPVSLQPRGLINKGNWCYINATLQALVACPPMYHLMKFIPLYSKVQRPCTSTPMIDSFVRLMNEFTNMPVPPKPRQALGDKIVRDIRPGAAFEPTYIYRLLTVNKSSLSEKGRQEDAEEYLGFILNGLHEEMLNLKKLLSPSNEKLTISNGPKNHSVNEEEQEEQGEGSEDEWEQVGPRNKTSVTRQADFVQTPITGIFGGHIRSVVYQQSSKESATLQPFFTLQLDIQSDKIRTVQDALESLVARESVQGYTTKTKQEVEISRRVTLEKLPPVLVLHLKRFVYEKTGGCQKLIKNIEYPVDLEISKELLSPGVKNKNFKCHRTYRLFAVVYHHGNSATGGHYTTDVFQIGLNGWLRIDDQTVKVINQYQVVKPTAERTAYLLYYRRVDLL

In ChEMBL document CHEMBL5500382, “Discovery of potent small molecule ubiquitin-specific protease 10 inhibitors with anti-hepatocellular carcinoma activity through regulating YAP expression” (Eur J Med Chem, 2024):

Assays:
Huh-7 [1] = experiment: cells; conditions: Homo sapiens, Huh-7, 24 h, read-out: Activity
Huh-7 [2] = experiment: cells; conditions: Homo sapiens, Huh-7, 24 h, read-out: Activity; remark: listed apart in the source
Huh-7 [3] = experiment: cells; conditions: Homo sapiens, Huh-7, 24 h, read-out: Activity; remark: listed apart in the source
Huh-7 [4] = experiment: cells; conditions: Homo sapiens, Huh-7, 24 h, read-out: Activity; remark: listed apart in the source
Huh-7 [5] = experiment: cells; conditions: Homo sapiens, Huh-7, 24 h, read-out: Activity; remark: listed apart in the source
[6] = molecular target: Ubiquitin carboxyl-terminal hydrolase 10 (Homo sapiens, UniProt Q14694); conditions: dose 10-10000 nM, time 60.0 min

Row | SMILES | viability at 5 µM (Huh-7 [1]) [%] | viability at 1.25 µM (Huh-7 [2]) [%] | viability at 0.625 µM (Huh-7 [3]) [%] | viability at 10 µM (Huh-7 [4]) [%] | viability at 2.5 µM (Huh-7 [5]) [%] | inhibition [6]
1 | Cc1ccc2c(=O)c(-c3nc(-c4ccccc4C)no3)cn(CC(=O)NCCc3ccc(Cl)cc3)c2c1 | 88.9 | 93.8 | 92.8 | 61.4 | 94.4 | 
2 | Cc1ccc2c(=O)c(-c3nc(-c4ccccc4C)no3)cn(CC(=O)Nc3c(F)cccc3F)c2n1 |  |  |  |  |  | Dose-Dependent Effect
